Data as given in patent US10946023B2, “Therapeutically active compounds and their methods of use” (Agios Pharmaceuticals, Inc., priority 2013, dated 2021).

Test system: HT1080 cells
Test: HT1080 cellular assay, 2-HG by LC-MS (IDH1 R132C)
Assay type: cell-based
Details: Homo sapiens, HT-1080
Procedure: The following describes the experimental procedures that can be used to obtain data on column 5 of Table 4.
Cells (HT1080 or U87MG) are grown in T125 flasks in DMEM containing 10% FBS, 1× penicillin/streptomycin and 500 ug/mL G418 (present in U87MG cells only). They are harvested by trypsin and seeded into 96 well white bottom plates at a density of 5000 cell/well in 100 ul/well in DMEM with 10% FBS. No cells are placed in columns 1 and 12. Cells are incubated overnight at 37° C. in 5% CO2. The next day test compounds are made up at 2× the final concentration and 100 ul are added to each cell well. The final concentration of DMSO is 0.2% and the DMSO control wells are plated in row G. The plates are then placed in the incubator for 48 hours. At 48 hours, 100 ul of media is removed from each well and analyzed by LC-MS for 2-HG concentrations. The cell plate is placed back in the incubator for another 24 hours. At 72 hours post compound addition, 10 mL/plate of Promega Cell Titer Glo reagent is thawed and mixed. The cell plate is removed from the incubator and allowed to equilibrate to room temperature. Then 100 ul of Promega Cell Titer Glo reagent is added to each well of media. The cell plate is then placed on an orbital shaker for 10 minutes and then allowed to sit at room temperature for 20 minutes. The plate is then read for luminescence with an integration time of 500 ms. […]

Q: How did the IC50 turn out when C[C@@H](Nc1cc(N[C@H](C)C2CC2)nc(-c2cccc(C(F)(F)F)n2)n1)C1CC1 [Compound 414] was run?
A: The IC50 was 100 to 1000 nM.
